AlphaSeq binding of Ab-14 heavy chain variants to a spike HR2 peptide

The target is the same throughout: PDVDLGDISGINAS, from the HR2 region of SARS-CoV-2 spike.

The variants keep the light chain, the linker and the frameworks of Ab-14 (scFv order VH, a 15-residue (Gly4Ser)3 linker, VL).
VH: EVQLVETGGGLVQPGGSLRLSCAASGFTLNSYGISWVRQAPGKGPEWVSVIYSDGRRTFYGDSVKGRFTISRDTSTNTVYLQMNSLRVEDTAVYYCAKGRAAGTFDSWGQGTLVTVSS
VL: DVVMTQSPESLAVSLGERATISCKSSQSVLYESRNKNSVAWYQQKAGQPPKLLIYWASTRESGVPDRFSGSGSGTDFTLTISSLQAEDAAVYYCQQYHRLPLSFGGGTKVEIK

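The starting antibody came from a phage panning campaign against this peptide. This is the validation round: designs drawn from the data on random variants, tested in the same kind of assay. Their group label is 14H_En_HC (En: ensemble of fine-tuned language models; HC: hill climbing; a sequence that several methods proposed may carry one label only). AlphaSeq pools MATa yeast showing the antibodies with MATalpha yeast showing the peptide. Binding brings cells together so that they mate, and sequencing counts the barcode pairs among the diploids. Scores were corrected for input abundance and mapped to Kd with protein pairs of known affinity run in the same pool. Mating was done six times.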

The parent's heavy chain CDRs are GFTLNSYGIS, VIYSDGRRTFYGDSVK, GRAAGTFDS; each variant's own CDRs replace them letter for letter.
The read-out is the apparent dissociation constant on a log10 scale (nM): the lower, the stronger.
"nd" means that the variant was in the library but no mating with the target was seen in that replicate; the authors take this as a sign of poor binding, and no number exists.

CDR-H1	CDR-H2	CDR-H3	replicates, log10 nM	control signals
GFDLNEYGIS	VIYADGRRTAYIDSVK	GNAAGTFDV	nd / nd / nd / nd / nd / 3.41	0/18
GFDLNEYGIS	VIYADGIRTFYADSVK	GNAAGTFDI	0.24 / 0.23 / -0.68 / -0.16 / -0.69 / 0.00	0/18
GFDLNEYGIS	VIYADGMRTVYADSVK	GEAAGTFDS	-0.09 / -0.22 / -0.47 / -0.58 / -0.28 / -0.35	0/18
GFDLNEYGIS	VIYADGRRTFYADSVK	GNVAGTFNN	-0.14 / -0.44 / -0.70 / -0.83 / -0.71 / -0.50	0/18
GFNLDEYGIS	VIYADGRRTFYADSVK	GEHGGTFDT	0.52 / -0.08 / 0.10 / 0.14 / -0.17 / 0.14	0/18
GFDLNEYGIS	VIYADGRRTFYADSVK	GSAAGTFDQ	-0.32 / -0.41 / -0.59 / -0.66 / -0.42 / -0.19	0/18
GFDLNEYGIS	VIYADGRRTFYSDSVK	GEIAGTFDF	-0.08 / -0.17 / -0.36 / -0.38 / -0.33 / -0.15	0/18
GFDLNEYGIS	VIYADGSRKFYADKVK	GENAGTFDV	-0.21 / -0.15 / -0.52 / -1.05 / -0.95 / -0.29	0/18
GFDINEYGIS	VIYADGRRTAYADSVK	GEAAGTFDE	-0.36 / -0.69 / 0.03 / -0.67 / -0.52 / -0.33	0/18
GFDLNEYGIS	VIYADGRRTFYSDSVK	GNVAGTFDA	-0.41 / -0.86 / -0.61 / -0.58 / -0.73 / -0.59	0/18
GFDLESYGIS	VIYADGVRTAYADSVK	GNVAGTFDV	-0.64 / -0.68 / -0.83 / -1.00 / -0.78 / -0.66	1/18 (2.13)
GFDLNEYGIS	VIYADGRRTFYADSVK	GEAAGTFDM	-0.83 / -1.14 / -1.40 / -0.98 / -1.48 / -0.91	0/18
GFDLNEYGIS	VIYADGKRTSYDDSVK	GQLAGTFDQ	-0.05 / 0.02 / -0.13 / 0.06 / -0.38 / 1.32	0/18
GFDLEDYGIS	VIYADGRRTFYADSVK	GEIAGTFDV	nd / nd / nd / nd / nd / nd	0/18
GFDLNEYGIS	VIYADGRRTAYADSVK	GEIAGTFDS	-0.25 / 0.09 / -0.45 / -0.15 / -0.38 / 0.04	1/18 (1.01)
GFDLNEYGIS	VIYADGVRTAYSDSVK	GEAAGTFDV	-0.18 / -0.31 / -0.56 / -0.68 / -0.68 / -0.42	0/18
GFDLNEYGIS	VIYADGRRTFYADSVK	GKHAGTFDQ	0.04 / -0.17 / -0.65 / -0.61 / -0.89 / 0.28	0/18
GFDLNEYGIS	VIYADGRRTFYADSVK	GENAGTFDS	-0.45 / -0.32 / -0.65 / -0.66 / -0.68 / -0.52	0/18
GFDLNEYGIS	VIYADGKRTQYIDSVK	GNVAGTFDS	0.35 / 0.81 / -0.22 / -0.05 / -0.61 / -0.09	0/18
GFDLNEYGIS	VIYADGRRTQYSDSVK	GEVAGTFDA	nd / 1.11 / 1.47 / 0.56 / 0.70 / 0.92	0/18
GFDLNEYGIS	VIYADGRRTFYQDSVK	GQLAGTFDL	-0.34 / -0.64 / -0.13 / -1.32 / -0.64 / -0.56	0/18
GFDLNEYGIS	VIYADGRRTFYADSVK	GNQAGTFIT	0.80 / 0.52 / 0.72 / 1.47 / 0.50 / 0.89	0/18
GFDLNEYGIS	VIYADGRRTFYSDSVK	GNVAGTFDD	0.29 / 0.32 / -0.41 / -0.36 / 0.10 / 0.04	0/18
GFDLNEYGIS	VIYADGSRTFYADSVK	GEAAGTFDL	-0.11 / -0.41 / 0.34 / -0.28 / 0.05 / -0.05	1/18 (3.30)
GFDLNEYGIS	VIYADGFRTFYTDSVK	GEVAGTFDI	0.14 / -0.19 / -0.29 / -0.26 / -0.48 / -0.09	0/18
GFDLNDYGIS	VIYADGRRTFYADSVK	GEVAGTFDI	0.18 / -0.16 / 0.24 / -0.14 / -0.05 / 0.92	0/18
GFDIDEYGIS	VIYADGMRTFYTDSVK	GEEAGTFDA	-1.16 / -0.21 / -0.50 / -1.18 / -0.69 / -0.05	0/18
GFNLNEYGIS	VIYADGRRTFYADSVK	GTNAGTFDV	-0.37 / -0.59 / -0.50 / -0.63 / -0.48 / -0.33	0/18
GFDLNEYGIS	VIYADGMRTAYIDSVK	GNAAGTFDS	-0.40 / -0.63 / -0.31 / -0.96 / -0.43 / -0.72	0/18
GFDLNEYGIS	VIYADGRRTFYTDSVK	GNEAGTFLV	-0.30 / -0.51 / -0.57 / -0.51 / -0.52 / -0.22	0/18
GFDLNEYGIS	VIYADGQRKFYADSVK	GENAGTFDV	-0.01 / -0.35 / -0.46 / -0.47 / -0.45 / 0.03	0/18
GFDLNEYGIS	VIYADGRRTYYIDSVK	GETAGTFDS	0.08 / 0.02 / 0.19 / 0.07 / -0.30 / 0.25	1/18 (1.30)
GFDLNEYGIS	VIYADGRRTAYSDSVK	GENGGTFDS	0.35 / -0.18 / -0.34 / -0.14 / -0.42 / -0.05	0/18
GFDLNEYGIS	VIYADGRRTFYADSVK	GNNAGTFDK	-0.10 / -0.25 / -0.17 / -0.25 / -0.36 / -0.20	2/18 (2.09)
GFDLSEYGIS	VIYADGRRTFYTDSVK	GENAGTFDE	-0.07 / 1.09 / 0.29 / 0.18 / 0.84 / 1.90	0/18
GFDLNDYGIS	VIYADGRRTQYIDSVK	GENAGTFDL	1.15 / 1.31 / 0.10 / 0.03 / 0.24 / 0.04	0/18
GFNLNEYGIS	VIYADGQRKFYADSVK	GNTAGTFDV	-0.41 / -0.59 / -0.53 / -0.78 / -0.53 / -0.59	0/18
GFDLNEYGIS	VIYADGKRTFYADSVK	GQIAGTFDT	-0.82 / -0.50 / -0.58 / -0.54 / -0.59 / -0.62	0/18

A selection of 4 entries from above:

CDR-H1,CDR-H2,CDR-H3,"replicates, log10 nM",control signals
GFDLNEYGIS,VIYADGRRTFYQDSVK,GQLAGTFDL,-0.34 / -0.64 / -0.13 / -1.32 / -0.64 / -0.56,0/18
GFDIDEYGIS,VIYADGMRTFYTDSVK,GEEAGTFDA,-1.16 / -0.21 / -0.50 / -1.18 / -0.69 / -0.05,0/18
GFDLNEYGIS,VIYADGRRTQYSDSVK,GEVAGTFDA,nd / 1.11 / 1.47 / 0.56 / 0.70 / 0.92,0/18
GFDLNEYGIS,VIYADGRRTFYADSVK,GNNAGTFDK,-0.10 / -0.25 / -0.17 / -0.25 / -0.36 / -0.20,2/18 (2.09)

Background: pairings of all heavy chain designs with three empty control strains gave a value in 1% of cases (median 2.08, 5th percentile 0.84). Values in that range, when seen in few replicates, are hard to tell from nonspecific mating. The control count says in how many pairings with the empty strains this scFv gave a signal, with their mean in brackets.
Values of this round are not directly comparable with the first-round values of the same sequences.
In the paper, a design with two or fewer of six values counts as a poor binder.

The measurements come from Li et al. 2023 (doi:10.1038/s41467-023-39022-2) through the FLAb antibody collection.